Results as given in ChEMBL document CHEMBL1909046, “DrugMatrix in vitro pharmacology data”.

The chains behind the UniProt entries cited, without tags or fusion partners. Where a name states a change or a piece, a line headed by the entry shows the natural chain unless it says otherwise. Residues count along the entry.
UniProt P22303, 32-614 limits assumed: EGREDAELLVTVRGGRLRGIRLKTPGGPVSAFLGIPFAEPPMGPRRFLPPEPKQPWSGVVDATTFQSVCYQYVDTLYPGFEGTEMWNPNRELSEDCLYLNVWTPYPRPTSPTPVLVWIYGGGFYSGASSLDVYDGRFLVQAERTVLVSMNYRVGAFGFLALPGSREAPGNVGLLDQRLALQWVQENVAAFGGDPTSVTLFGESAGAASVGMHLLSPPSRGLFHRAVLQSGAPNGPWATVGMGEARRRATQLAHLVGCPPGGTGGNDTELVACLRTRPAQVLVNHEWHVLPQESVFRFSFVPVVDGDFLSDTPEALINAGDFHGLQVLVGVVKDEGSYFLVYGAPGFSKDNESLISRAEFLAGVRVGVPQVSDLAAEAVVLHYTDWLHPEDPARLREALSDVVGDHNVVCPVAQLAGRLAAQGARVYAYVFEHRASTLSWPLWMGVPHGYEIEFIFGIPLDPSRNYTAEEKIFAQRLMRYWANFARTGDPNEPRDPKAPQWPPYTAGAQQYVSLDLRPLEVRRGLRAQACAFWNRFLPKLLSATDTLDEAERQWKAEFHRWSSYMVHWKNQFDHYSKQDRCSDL
UniProt P41595, whole entry, looked up: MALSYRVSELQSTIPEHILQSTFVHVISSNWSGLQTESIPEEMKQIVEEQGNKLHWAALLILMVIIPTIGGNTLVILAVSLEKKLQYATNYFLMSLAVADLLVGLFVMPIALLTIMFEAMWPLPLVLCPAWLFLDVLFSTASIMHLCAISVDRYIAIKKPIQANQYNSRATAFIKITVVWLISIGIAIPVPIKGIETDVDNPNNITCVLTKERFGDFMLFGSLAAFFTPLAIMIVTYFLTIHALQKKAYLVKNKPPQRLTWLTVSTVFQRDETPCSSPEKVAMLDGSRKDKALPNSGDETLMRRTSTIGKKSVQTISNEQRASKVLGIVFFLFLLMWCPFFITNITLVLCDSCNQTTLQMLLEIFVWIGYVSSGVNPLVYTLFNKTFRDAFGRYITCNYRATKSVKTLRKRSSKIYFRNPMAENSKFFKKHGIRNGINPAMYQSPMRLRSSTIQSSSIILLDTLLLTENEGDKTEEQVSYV
UniProt P08575, 26-1306 limits assumed: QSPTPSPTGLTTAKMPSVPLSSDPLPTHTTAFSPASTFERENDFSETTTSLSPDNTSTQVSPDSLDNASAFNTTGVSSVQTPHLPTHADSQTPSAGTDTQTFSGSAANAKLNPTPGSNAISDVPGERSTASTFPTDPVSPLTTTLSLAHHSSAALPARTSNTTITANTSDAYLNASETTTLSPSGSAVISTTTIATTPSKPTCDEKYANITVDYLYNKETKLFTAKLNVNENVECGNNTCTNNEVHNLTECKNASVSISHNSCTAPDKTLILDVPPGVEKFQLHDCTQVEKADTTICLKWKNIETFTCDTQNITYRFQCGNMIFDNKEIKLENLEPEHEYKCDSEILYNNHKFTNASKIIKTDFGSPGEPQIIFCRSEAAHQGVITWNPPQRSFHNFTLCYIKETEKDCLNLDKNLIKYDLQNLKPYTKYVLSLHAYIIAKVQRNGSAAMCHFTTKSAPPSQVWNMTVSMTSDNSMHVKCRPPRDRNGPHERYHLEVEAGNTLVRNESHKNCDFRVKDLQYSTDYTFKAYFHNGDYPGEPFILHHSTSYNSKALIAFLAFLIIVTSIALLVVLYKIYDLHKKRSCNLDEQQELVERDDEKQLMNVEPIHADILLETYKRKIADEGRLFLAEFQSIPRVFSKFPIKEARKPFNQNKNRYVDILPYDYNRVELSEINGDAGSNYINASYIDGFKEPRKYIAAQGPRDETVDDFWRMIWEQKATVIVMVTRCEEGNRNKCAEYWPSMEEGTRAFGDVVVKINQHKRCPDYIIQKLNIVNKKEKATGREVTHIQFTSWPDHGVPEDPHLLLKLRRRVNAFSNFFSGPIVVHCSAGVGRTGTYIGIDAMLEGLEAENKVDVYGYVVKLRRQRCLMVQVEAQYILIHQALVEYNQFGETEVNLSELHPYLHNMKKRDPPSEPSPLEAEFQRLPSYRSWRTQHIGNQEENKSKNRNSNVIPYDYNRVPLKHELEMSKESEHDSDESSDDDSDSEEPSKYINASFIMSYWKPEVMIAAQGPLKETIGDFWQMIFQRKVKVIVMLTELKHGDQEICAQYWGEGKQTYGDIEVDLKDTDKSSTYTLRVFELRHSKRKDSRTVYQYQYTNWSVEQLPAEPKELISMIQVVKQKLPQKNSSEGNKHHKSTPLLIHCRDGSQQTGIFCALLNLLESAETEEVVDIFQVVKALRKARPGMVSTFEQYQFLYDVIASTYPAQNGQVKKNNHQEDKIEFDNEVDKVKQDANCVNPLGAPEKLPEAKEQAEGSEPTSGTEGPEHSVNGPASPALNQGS
UniProt O70528: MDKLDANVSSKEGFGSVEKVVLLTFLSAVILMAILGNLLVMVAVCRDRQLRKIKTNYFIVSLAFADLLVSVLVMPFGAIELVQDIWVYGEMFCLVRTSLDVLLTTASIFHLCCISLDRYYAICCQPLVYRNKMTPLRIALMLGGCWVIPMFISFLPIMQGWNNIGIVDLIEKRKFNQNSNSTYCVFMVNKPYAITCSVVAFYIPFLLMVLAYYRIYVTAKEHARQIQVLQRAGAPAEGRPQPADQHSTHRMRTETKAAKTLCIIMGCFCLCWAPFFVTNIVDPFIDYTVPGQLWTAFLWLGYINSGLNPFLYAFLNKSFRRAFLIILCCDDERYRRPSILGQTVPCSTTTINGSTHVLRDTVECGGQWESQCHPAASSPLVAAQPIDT
UniProt P41145: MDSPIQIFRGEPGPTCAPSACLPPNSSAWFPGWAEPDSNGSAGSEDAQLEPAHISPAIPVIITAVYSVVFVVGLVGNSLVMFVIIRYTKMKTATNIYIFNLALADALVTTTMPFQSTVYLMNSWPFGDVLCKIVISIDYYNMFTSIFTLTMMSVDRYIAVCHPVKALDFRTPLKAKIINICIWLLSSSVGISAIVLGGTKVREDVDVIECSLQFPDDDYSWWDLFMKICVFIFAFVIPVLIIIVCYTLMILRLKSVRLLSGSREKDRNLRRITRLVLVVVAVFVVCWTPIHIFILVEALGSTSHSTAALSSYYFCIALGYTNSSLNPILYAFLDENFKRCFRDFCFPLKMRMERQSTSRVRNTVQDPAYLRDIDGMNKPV
UniProt P08246, 30-267 limits assumed: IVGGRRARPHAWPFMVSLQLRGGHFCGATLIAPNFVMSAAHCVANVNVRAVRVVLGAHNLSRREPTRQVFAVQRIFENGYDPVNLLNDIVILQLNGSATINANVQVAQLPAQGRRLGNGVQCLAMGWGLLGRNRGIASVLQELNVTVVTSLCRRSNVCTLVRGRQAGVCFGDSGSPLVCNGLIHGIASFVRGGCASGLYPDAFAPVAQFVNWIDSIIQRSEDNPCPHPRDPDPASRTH
UniProt Q16539, 2-360 limits assumed: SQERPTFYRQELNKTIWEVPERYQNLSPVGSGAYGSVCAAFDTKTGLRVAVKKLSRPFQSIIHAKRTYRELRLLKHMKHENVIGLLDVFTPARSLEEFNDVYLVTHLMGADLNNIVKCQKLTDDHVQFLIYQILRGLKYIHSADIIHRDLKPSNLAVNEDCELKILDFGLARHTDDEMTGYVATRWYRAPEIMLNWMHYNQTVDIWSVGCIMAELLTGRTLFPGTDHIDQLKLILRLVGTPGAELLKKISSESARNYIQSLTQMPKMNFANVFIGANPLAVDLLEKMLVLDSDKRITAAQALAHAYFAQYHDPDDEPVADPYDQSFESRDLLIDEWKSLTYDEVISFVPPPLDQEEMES
UniProt P13945: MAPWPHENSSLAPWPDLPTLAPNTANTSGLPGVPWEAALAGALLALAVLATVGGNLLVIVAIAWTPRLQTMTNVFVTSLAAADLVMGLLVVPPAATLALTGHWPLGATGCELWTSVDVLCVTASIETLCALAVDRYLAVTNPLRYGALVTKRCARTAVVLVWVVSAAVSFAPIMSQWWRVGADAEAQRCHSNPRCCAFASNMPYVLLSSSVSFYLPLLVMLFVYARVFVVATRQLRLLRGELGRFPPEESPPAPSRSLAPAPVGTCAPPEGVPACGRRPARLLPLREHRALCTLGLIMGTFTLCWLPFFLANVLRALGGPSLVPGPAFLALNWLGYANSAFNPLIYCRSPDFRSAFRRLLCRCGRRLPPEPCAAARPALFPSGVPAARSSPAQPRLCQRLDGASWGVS
UniProt P29476, whole entry, looked up: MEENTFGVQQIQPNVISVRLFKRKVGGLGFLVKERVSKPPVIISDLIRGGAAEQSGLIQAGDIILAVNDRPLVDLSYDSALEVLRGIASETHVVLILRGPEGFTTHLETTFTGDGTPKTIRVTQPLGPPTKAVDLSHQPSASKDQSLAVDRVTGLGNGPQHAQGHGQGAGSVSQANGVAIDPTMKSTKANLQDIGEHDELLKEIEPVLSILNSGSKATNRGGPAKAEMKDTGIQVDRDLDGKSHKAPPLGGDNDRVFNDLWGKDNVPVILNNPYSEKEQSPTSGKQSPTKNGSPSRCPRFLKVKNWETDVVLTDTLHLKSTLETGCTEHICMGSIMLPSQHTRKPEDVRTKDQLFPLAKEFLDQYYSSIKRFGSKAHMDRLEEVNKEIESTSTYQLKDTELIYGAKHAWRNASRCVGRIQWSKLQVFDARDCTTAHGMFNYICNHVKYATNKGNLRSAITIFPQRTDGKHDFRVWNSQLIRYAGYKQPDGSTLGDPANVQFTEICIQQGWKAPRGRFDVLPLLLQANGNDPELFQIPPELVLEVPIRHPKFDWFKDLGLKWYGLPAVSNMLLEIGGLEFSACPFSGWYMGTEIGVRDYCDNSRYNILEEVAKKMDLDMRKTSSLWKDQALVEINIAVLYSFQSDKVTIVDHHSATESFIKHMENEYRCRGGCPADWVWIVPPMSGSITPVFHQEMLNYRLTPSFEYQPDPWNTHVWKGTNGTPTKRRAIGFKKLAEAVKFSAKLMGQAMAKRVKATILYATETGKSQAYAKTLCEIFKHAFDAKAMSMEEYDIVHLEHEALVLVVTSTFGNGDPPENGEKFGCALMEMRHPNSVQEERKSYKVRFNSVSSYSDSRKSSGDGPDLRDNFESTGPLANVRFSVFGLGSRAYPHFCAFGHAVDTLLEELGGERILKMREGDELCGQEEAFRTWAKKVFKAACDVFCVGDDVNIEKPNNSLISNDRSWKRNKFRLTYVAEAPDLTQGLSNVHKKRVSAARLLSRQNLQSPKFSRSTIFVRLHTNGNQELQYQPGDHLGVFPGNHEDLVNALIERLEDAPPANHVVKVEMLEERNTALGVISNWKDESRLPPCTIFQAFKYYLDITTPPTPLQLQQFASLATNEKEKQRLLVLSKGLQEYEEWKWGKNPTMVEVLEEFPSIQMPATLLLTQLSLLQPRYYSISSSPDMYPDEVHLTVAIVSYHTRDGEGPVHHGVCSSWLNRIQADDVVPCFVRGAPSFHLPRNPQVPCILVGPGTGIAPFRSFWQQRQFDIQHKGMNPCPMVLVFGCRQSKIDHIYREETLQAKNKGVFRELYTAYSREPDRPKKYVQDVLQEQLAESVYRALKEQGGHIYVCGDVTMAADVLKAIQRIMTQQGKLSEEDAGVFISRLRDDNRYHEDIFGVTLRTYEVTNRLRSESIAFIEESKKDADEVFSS
UniProt P21917, whole entry, looked up: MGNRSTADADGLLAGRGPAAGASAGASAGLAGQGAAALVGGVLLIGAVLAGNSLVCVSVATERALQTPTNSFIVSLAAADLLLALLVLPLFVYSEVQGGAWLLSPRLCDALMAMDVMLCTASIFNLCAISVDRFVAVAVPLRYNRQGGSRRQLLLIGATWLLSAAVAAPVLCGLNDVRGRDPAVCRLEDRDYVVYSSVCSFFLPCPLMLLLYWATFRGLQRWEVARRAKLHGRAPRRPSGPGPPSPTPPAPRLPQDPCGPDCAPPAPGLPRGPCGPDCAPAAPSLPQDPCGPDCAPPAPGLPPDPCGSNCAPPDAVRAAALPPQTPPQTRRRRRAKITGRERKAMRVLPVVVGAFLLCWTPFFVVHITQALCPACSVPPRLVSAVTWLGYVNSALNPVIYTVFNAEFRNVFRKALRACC
UniProt Q01959, whole entry, looked up: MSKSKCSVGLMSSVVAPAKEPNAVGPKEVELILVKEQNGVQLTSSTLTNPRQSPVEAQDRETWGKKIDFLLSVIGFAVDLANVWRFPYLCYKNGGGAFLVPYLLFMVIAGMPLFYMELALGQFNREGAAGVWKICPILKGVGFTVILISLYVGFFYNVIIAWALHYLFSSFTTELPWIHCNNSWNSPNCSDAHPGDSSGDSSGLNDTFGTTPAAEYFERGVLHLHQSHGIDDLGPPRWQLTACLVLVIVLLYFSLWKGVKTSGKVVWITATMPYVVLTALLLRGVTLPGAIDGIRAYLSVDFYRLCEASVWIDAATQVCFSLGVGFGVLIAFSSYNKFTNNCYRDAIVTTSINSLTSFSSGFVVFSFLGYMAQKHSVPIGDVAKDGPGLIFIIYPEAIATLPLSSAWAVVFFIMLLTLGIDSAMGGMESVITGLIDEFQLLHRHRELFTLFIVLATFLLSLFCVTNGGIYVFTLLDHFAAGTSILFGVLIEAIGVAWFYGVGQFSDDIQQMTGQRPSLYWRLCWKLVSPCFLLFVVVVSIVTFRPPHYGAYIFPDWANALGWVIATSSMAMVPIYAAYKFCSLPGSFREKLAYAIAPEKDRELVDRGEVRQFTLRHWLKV

Legend:
[1] = molecular target: Vasoactive intestinal polypeptide receptor 1 (Homo sapiens, UniProt P32241); conditions: ht-29; further: in other assays of this panel Not Active means under 50% inhibition at 10 µM
[2] = molecular target: Receptor tyrosine-protein kinase erbB-2 (Homo sapiens, UniProt P04626); assay: DRUGMATRIX: Protein Tyrosine Kinase, ERBB2 (HER2) enzyme inhibition (substrate: Poly(Glu:Tyr)); conditions: insect cells;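 further: inhibition of HER2 kinase enzyme activity, measured with Poly(Glu:Tyr) as the phosphorylation substrate; in other assays of this panel Not Active means under 50% inhibition at 10 µM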
[3] = molecular target: cGMP-specific 3',5'-cyclic phosphodiesterase (Homo sapiens, UniProt O76074); assay: DRUGMATRIX: Phosphodiesterase PDE5 enzyme inhibition (substrate: [3H]cGMP + cGMP); conditions: platelet
D(1A) dopamine receptor = D(1A) dopamine receptor (Homo sapiens, UniProt P21728); assay: DRUGMATRIX: Dopamine D1 radioligand binding (ligand: [3H] SCH-23390); conditions: cho
Acetylcholinesterase = Acetylcholinesterase (Homo sapiens, UniProt P22303); assay: DRUGMATRIX: Acetylcholinesterase enzyme inhibition (substrate: acetylthiocholine); conditions: hek293
[4] = molecular target: Tyrosine-protein kinase Lck (Homo sapiens, UniProt P06239); assay: DRUGMATRIX: Protein Tyrosine Kinase, LCK enzyme inhibition (substrate: Poly(Glu:Tyr)); conditions: insect cells
[5] = molecular target: Alpha-1B adrenergic receptor (Rattus norvegicus, UniProt P15823); conditions: strain Wistar, Liver
[6] = molecular target: 5-hydroxytryptamine receptor 2B (Homo sapiens, UniProt P41595); assay: DRUGMATRIX: Serotonin (5-Hydroxytryptamine) 5-HT2B radioligand binding (ligand: [3H] Lysergic acid diethylamide); conditions: cho-k1; further: in other assays of this panel Not Active means under 50% inhibition at 10 µM
[7] = molecular target: Receptor-type tyrosine-protein phosphatase C (Homo sapiens, UniProt P08575); assay: DRUGMATRIX: Protein Tyrosine Phosphatase, PTPRC (CD45) enzyme inhibition (substrate: DiFMUP);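 further: inhibition of CD45 enzyme activity measured using DiFMUP as substrate; in other assays of this panel Not Active means under 50% inhibition at 10 µM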
[8] = molecular target: 5-hydroxytryptamine receptor 4 (Cavia porcellus, UniProt O70528); assay: DRUGMATRIX: Serotonin (5-Hydroxytryptamine) 5-HT4 radioligand binding (ligand: [3H] GR-113808); conditions: strain Dunkin-Hartley, Striatum; further: in other assays of this panel Not Active means under 50% inhibition at 10 µM
[9] = molecular target: Kappa-type opioid receptor (Homo sapiens, UniProt P41145); assay: DRUGMATRIX: Opiate kappa (OP2, KOP) radioligand binding (ligand: [3H] Diprenorphine); conditions: hek293
Neutrophil elastase = Neutrophil elastase (Homo sapiens, UniProt P08246); assay: DRUGMATRIX: Peptidase, ELA2 (Neutrophil Elastase 2) enzyme inhibition (substrate: N-MeOSuc-Ala-Ala-Pro-Val-pNA)
[10] = molecular target: Beta-2 adrenergic receptor (Homo sapiens, UniProt P07550); assay: DRUGMATRIX: Adrenergic beta2 radioligand binding (ligand: [3H] CGP-12177); conditions: cho
[11] = molecular target: Protein kinase C alpha type (Homo sapiens, UniProt P17252); assay: DRUGMATRIX: Protein Serine/Threonine Kinase PKCalpha enzyme inhibition (substrate: Histone); conditions: sf9
[12] = molecular target: Tyrosine-protein kinase Fyn (Homo sapiens, UniProt P06241); assay: DRUGMATRIX: Protein Tyrosine Kinase, Fyn enzyme inhibition (substrate: Poly(Glu:Tyr)); conditions: insect cells
[13] = molecular target: 5-hydroxytryptamine receptor 6 (Homo sapiens, UniProt P50406); assay: DRUGMATRIX: Serotonin (5-Hydroxytryptamine) 5-HT6 radioligand binding (ligand: [3H] Lysergic acid diethylamide); conditions: hela; further: in other assays of this panel Not Active means under 50% inhibition at 10 µM
[14] = molecular target: Mitogen-activated protein kinase 14 (Homo sapiens, UniProt Q16539); assay: DRUGMATRIX: Protein Serine/Threonine Kinase, p38alpha enzyme inhibition (substrate: Myelin Basic Protein)
Adenosine receptor A2a = Adenosine receptor A2a (Homo sapiens, UniProt P29274); assay: DRUGMATRIX: Adenosine A2A radioligand binding (ligand: […]); conditions: hek293
[15] = molecular target: Beta-3 adrenergic receptor (Homo sapiens, UniProt P13945); conditions: hek293
Carbonic anhydrase 2 = Carbonic anhydrase 2 (Homo sapiens, UniProt P00918); assay: DRUGMATRIX: Carbonic Anhydrase II enzyme inhibition (substrate: 4-Nitrophenyl acetate (4-NPA)); conditions: erythrocyte
Nitric oxide synthase 1 = Nitric oxide synthase 1 (Rattus norvegicus, UniProt P29476); assay: DRUGMATRIX: Nitric Oxide Synthase, Neuronal (nNOS) radioligand binding (ligand: [3H]L-Arginine); conditions: Cerebellum; further: in other assays of this panel Not Active means under 50% inhibition at 10 µM
[16] = molecular target: Vascular endothelial growth factor receptor 1 (Homo sapiens, UniProt P17948); conditions: huvec; further: in other assays of this panel Not Active means under 50% inhibition at 10 µM
[17] = molecular target: 5-hydroxytryptamine receptor 1A (Rattus norvegicus, UniProt P19327); assay: DRUGMATRIX: Serotonin (5-Hydroxytryptamine) 5-HT1A radioligand binding (ligand: [3H] 8-OH-DPAT); conditions: cho-k1; further: in other assays of this panel Not Active means under 50% inhibition at 10 µM
D(4) dopamine receptor = D(4) dopamine receptor (Homo sapiens, UniProt P21917); assay: DRUGMATRIX: Dopamine D4.2 radioligand binding (ligand: [3H] Spiperone); conditions: cho-k1
[18] = molecular target: 5-hydroxytryptamine receptor 1B (Rattus norvegicus, UniProt P28564); conditions: strain Wistar, Cerebral cortex; further: in other assays of this panel Not Active means under 50% inhibition at 10 µM
[19] = molecular target: Sodium-dependent dopamine transporter (Homo sapiens, UniProt Q01959); conditions: cho-k1
[20] = molecular target: Mitogen-activated protein kinase 3 (Homo sapiens, UniProt P27361); assay: DRUGMATRIX: Protein Serine/Threonine Kinase, ERK1 enzyme inhibition (substrate: Myelin Basic Protein)
Interstitial collagenase = Interstitial collagenase (Homo sapiens, UniProt P03956); assay: DRUGMATRIX: Peptidase, Matrix Metalloprotease-1 (MMP-1) enzyme inhibition (substrate: Mca-Pro-Leu-Gly-Leu-Dpa-Ala-Arg-NH2); conditions: Rheumatoid synovial fibroblasts; further: in other assays of this panel Not Active means under 50% inhibition at 10 µM
Mu-type opioid receptor = Mu-type opioid receptor (Homo sapiens, UniProt P35372); assay: DRUGMATRIX: Opiate mu (OP3, MOP) radioligand binding (ligand: [3H] Diprenorphine); conditions: cho-k1
[21] = molecular target: Sodium-dependent noradrenaline transporter (Homo sapiens, UniProt P23975); conditions: mdck

CN(C(=O)Cc1ccc(Cl)c(Cl)c1)C1CCC2(CCCO2)CC1N1CCCC1 (stereo not given)
IC50 [1]: Not Active | Ki [1]: Not Active | IC50 [2]: Not Active | Ki [2]: Not Active | IC50 [3]: Not Active | Ki [3]: Not Active | IC50 (D(1A) dopamine receptor): Not Active | Ki (D(1A) dopamine receptor): Not Active | IC50 (Acetylcholinesterase): Not Active | Ki (Acetylcholinesterase): Not Active | IC50 [4]: Not Active | Ki [4]: Not Active | IC50 [5]: Not Active | Ki [5]: Not Active | IC50 [6]: Not Active | Ki [6]: Not Active | IC50 [7]: Not Active | Ki [7]: Not Active | IC50 [8]: Not Active | Ki [8]: Not Active | IC50 [9]: 0.0083 µM | Ki [9]: 0.00332 µM | IC50 (Neutrophil elastase): Not Active | Ki (Neutrophil elastase): Not Active | IC50 [10]: Not Active | Ki [10]: Not Active | IC50 [11]: Not Active | Ki [11]: Not Active | IC50 [12]: Not Active | Ki [12]: Not Active | IC50 [13]: Not Active | Ki [13]: Not Active | IC50 [14]: Not Active | Ki [14]: Not Active | IC50 (Adenosine receptor A2a): Not Active | Ki (Adenosine receptor A2a): Not Active | IC50 [15]: Not Active | Ki [15]: Not Active | IC50 (Carbonic anhydrase 2): Not Active | Ki (Carbonic anhydrase 2): Not Active | IC50 (Nitric oxide synthase 1): Not Active | Ki (Nitric oxide synthase 1): Not Active | IC50 [16]: Not Active | Ki [16]: Not Active | IC50 [17]: Not Active | Ki [17]: Not Active | IC50 (D(4) dopamine receptor): Not Active | Ki (D(4) dopamine receptor): Not Active | IC50 [18]: Not Active | Ki [18]: Not Active | IC50 [19]: Not Active | Ki [19]: Not Active | IC50 [20]: Not Active | Ki [20]: Not Active | IC50 (Interstitial collagenase): Not Active | Ki (Interstitial collagenase): Not Active | IC50 (Mu-type opioid receptor): 0.234 µM | Ki (Mu-type opioid receptor): 0.095 µM | IC50 [21]: Not Active | Ki [21]: Not Active
